# Experimental data published in ChEMBL document CHEMBL5230140, “A retrospective overview of PHGDH and its inhibitors for regulating cancer metabolism” (Eur J Med Chem, 2021).
# Molecular target: T1, D-3-phosphoglycerate dehydrogenase (Homo sapiens, UniProt O43175)
# T1 sequence (O43175 whole entry): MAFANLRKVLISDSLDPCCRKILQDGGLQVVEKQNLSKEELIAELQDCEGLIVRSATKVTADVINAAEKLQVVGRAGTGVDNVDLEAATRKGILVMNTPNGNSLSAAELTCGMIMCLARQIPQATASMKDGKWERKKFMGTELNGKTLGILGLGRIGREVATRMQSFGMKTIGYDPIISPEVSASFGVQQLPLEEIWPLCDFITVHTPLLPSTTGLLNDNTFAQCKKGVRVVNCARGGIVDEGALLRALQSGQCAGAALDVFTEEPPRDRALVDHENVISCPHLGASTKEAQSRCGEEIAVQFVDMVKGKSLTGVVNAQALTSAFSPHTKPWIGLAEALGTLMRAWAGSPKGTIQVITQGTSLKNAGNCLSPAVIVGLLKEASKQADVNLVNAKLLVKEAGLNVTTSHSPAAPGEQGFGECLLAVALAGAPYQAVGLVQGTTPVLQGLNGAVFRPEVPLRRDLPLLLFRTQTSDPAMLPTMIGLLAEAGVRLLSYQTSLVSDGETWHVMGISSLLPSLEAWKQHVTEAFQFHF
# Experiment: Inhibition of human PHGDH by fluorescence based analysis
compound,measurement,value
O=C1NC[C@@H](COc2cc3[nH]c(C(=O)N[C@H](CO)c4ccc(C(=O)O)cc4)cc3cc2Cl)O1,IC50,57 µM
